Molecular target: T1, RecO (UniProt P0A7H3 1-242)
T1 construct: RecO recombination mediator protein; source: purified as previously described (Kantake et al., 2002)
T1 sequence (looked up): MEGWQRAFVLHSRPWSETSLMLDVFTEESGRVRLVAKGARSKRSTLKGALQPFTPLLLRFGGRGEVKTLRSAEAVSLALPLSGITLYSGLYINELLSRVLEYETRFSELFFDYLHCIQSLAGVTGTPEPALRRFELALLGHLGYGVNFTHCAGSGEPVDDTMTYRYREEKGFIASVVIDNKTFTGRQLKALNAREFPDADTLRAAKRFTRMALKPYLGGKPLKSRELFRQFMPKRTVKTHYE
Assay: magnetic tweezers force spectroscopy; single tethered ssDNA; added in turn: 100 mM NaOAc and 1 mM Mg(OAc)2, 200 nM SSB, 100 nM RecO, 1 μM RecR; 20 mM TrisOAc pH 8.0, 50 mM DTT; 25°C
Conditions: both partners purified

B1: Escherichia coli single-stranded DNA binding protein (SSB), wild-type, unmodified (natural protein, E. coli, UniProt P0AGE0 1-178, looked up)
chain: MASRGVNKVILVGNLGQDPEVRYMPNGGAVANITLATSESWRDKATGEMKEQTEWHRVVLFGKLAEVASEYLRKGSQVYIEGQLRTRKWTDQSGQDRYTTEVVVNVGGTMQMLGGRQGGGAPAGGNIGGGQPQGGWGQPQQPQGGNQFSGGAQSRPQQSAPAAPSNEPPMDFDDDIPF
notes: also called wild type SSB; unlabeled SSB
B1: binds.

Source: article PMC4652220, “Imaging and energetics of single SSB-ssDNA molecules reveal intramolecular condensation and insight into RecOR function” (eLife, 2015)
